PubChem BioAssay AID1948 (National Center for Advancing Translational Sciences (NCATS), 2009)
The list shows a part of the results, in another mix than the full data. Some of these compounds have results that are not shown, active ones among them. Active and inactive are the calls of the source. Calls follow the shape of the dose curve; as a rule, active = well fitted activation curve with a large enough effect; inconclusive = small, poorly fitted or top-dose-only effect; inactive = no such curve, though single readings can be large or run the other way.

Test: qHTS Assay for Compounds that Induce Erasure of Genomic Imprints;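 also: 0% = negative control wells on the plate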
Details: mouse ES Peg3-LacZ reporter, beta-gal luminescence, 40 h; at 10.9 µM unless noted

Compound	activity change, positive = activation
CN1CC[C@H](OC(=O)[C@](O)(c2ccccc2)C2CCCC2)C1	inactive: -9.79%
O=C(OC1CN2CCC1CC2)C(CO)(c1ccccc1)c1ccccc1 (stereo unspecified)	inactive: -13% [at 60.7 µM]
COc1cccc(C(=O)NCC2(N3CCOCC3)CCCCC2)c1	inactive: 13%
CN1CCC[C@H](OC(=O)[C@](O)(c2ccccc2)C2CCCC2)C1	inactive: -8.26%
CC(C)COc1ccc(C(=O)NCC2(N(C)C)CCCCC2)cc1	inactive: -23.1%
C=C(C)C#C[C@@](O)(C(=O)OC1CCN(C)CC1)c1ccccc1	inactive: -6.49%
Cc1cccc(C(=O)NCC2(N(C)C)CCCCC2)c1	inactive: -14.4%
COc1cc(C(=O)NCC2(N(C)C)CCCCC2)cc(OC)c1OC	inactive: 18.8%
CN(C)c1cccc(C(=O)NCC2(N(C)C)CCCCC2)c1	inactive: -4.22% [at 60.7 µM]
CC(C)Oc1ccc(C(=O)NCC2(N(C)C)CCCCC2)cc1	inactive: -13.1%
COc1ccc(C(=O)NCC2(N(C)C)CCCCC2)cc1Cl	inactive: -16.9%
CN(C)C1(CNC(=O)c2ccccc2[N+](=O)[O-])CCCCC1	inactive: -10.9%
CCCCOc1ccccc1C(=O)NCC1(N(C)C)CCCCC1	inactive: -21.3%
CCOc1cccc(C(=O)NCC2(N(C)C)CCCCC2)c1	inactive: -6.54%
CN(C)C1(CNC(=O)c2cccc(Cl)c2)CCCCC1	inactive: -13.2%
CN(C)C1(CNC(=O)c2ccccc2F)CCCCC1	inactive: -11.5%
